Test results reported in ChEMBL document CHEMBL6087477, “G9a/GLP Modulators: Inhibitors to Degraders” (J Med Chem, 2025).

Molecular target: T1, Histone-lysine N-methyltransferase EHMT1 (Homo sapiens, UniProt Q9H9B1)
T1 sequence (Q9H9B1 whole entry): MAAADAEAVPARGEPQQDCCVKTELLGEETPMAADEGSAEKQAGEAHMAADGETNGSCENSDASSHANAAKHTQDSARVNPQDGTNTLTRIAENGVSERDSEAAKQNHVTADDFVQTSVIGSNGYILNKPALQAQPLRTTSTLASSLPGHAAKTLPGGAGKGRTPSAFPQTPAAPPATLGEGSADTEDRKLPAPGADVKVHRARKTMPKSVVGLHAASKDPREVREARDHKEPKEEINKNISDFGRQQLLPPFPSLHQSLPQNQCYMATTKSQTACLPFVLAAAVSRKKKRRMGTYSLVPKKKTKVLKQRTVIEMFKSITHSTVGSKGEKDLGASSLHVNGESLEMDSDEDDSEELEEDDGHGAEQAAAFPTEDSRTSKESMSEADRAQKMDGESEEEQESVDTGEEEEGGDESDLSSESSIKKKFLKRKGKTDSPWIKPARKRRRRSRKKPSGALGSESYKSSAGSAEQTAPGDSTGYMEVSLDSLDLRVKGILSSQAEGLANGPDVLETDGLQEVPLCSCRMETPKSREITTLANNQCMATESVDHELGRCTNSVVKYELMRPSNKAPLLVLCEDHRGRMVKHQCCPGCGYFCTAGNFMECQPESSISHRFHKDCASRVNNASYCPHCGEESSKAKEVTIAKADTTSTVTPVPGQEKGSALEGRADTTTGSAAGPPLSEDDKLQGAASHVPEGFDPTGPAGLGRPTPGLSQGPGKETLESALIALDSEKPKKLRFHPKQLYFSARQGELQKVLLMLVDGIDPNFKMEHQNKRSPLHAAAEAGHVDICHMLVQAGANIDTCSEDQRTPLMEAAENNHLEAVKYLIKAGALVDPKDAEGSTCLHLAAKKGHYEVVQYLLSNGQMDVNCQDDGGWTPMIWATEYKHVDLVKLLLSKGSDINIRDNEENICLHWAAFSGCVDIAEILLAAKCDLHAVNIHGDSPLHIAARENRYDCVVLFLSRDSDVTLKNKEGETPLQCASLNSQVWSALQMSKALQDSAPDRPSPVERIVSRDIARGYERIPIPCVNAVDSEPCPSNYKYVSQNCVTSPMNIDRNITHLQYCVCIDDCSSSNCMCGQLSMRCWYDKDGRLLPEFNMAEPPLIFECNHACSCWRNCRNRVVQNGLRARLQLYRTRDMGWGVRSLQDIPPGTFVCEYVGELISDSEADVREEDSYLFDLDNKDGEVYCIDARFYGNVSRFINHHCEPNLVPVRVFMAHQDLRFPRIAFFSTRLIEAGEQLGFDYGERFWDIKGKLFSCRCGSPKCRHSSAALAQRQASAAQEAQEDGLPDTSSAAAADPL
Assay: Inhibition of GLP (unknown origin)

COc1cc2nc(N3CCCN(C)CC3)nc(NC3CCN(Cc4ccccc4)CC3)c2cc1OC
IC50: 0.02 µM
